PubChem BioAssay AID2216 (Broad Institute, 2009)
The entries are a selection whose mix differs from that of the whole data set. Records with an inconclusive call do not appear. Activity calls are given as the source filed them.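 Rule for the calls: active = more than half of the replicate wells show a fall in the fluorescence ratio signal beyond about 16% (limit read from the data, passing the limit was not always enough); inconclusive = exactly half of the replicate wells pass the set limit; inactive = fewer than half of replicates pass the limit.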

The compounds below were run on Ran GTPase (GTP-bound) - importin-beta complex (assay: disruptors of Ran-importin-beta complex formation – biochemical, FRET, CFP-Ran, YFP-importin-beta, homogeneous, primary screen (AID 2216;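 note: 0% = DMSO wells and 100% = Ran loaded with GDP instead of GTP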)). Settings: cell-free CFP-Ran/YFP-importin-beta FRET ratio; active compounds read high; concentration not given here.

| SMILES | inhibition |
| --- | --- |
| O=C(NCC1(N2CCCCC2)CCCCC1)c1cccc(C(F)(F)F)c1 | inactive: -0.88% |
| O=C(NCC1(N2CCOCC2)CCCCC1)c1cc(=O)[nH]c2ccccc12 | inactive: 2.66% |
| COc1cc(C(=O)NCC2(N3CCCCC3)CCCCC2)ccc1OC(F)F | inactive: 1.13% |
| COc1ccc(NC2CCN(C(=O)OC(C)(C)C)CC2)cc1 | inactive: 7.66% |
| CN1CCN(CCOC(=O)C(O)(c2ccccc2)c2ccccc2)CC1 | inactive: 4.75% |
| N#CC1(Nc2ccccc2)CCN(CCc2ccccc2)CC1 | inactive: 5% |
| CCN1CCC(Nc2ccc(Cl)cc2)CC1 | inactive: 0.412% |
| O=C(NCC1(N2CCCCC2)CCCCC1)c1cccc([N+](=O)[O-])c1 | inactive: -0.369% |
| CN1CCC(Nc2cccc(F)c2)CC1 | inactive: -1.9% |
| CCCOc1ccc(C(=O)NCC2(N(C)C)CCCCC2)cc1OC | inactive: -1.15% |
| CC(C)c1ccc(NC2CCN(C(=O)OC(C)(C)C)CC2)cc1 | inactive: -1.08% |
| CN(C)c1cccc(C(=O)NCC2(N3CCCCC3)CCCCC2)c1 | inactive: 1.02% |
| COc1ccc(CN(CCCl)CCCl)cc1Cl | inactive: 0.0227% |
| COc1cc(OC)c(C(=O)NCC2(N(C)C)CCCCC2)cc1OC | inactive: 7.63% |
| Cc1cc(C)cc(N(C(=O)c2ccccc2)C2CCN(C(=O)OC(C)(C)C)CC2)c1 | inactive: 0.539% |
| O=C(NCC1(N2CCCCC2)CCCCC1)c1ccc(Cl)nc1 | inactive: -2.21% |
| O=C(NCC1(N2CCOCC2)CCCCC1)c1cc2ccccc2o1 | inactive: -1.37% |
| O=C(OC1CN2CCC1CC2)C1c2ccccc2Oc2ccccc21 (stereo not given) | inactive: -0.879% |
| N#CC1(Nc2ccccc2)CCN(Cc2ccccc2)CC1 | inactive: 4.05% |
| CCOC(=O)N1CCC(Nc2ccc(OC)cc2)CC1 | inactive: -2.71% |
| COc1ccc(C(=O)NCC2(N3CCCCC3)CCCCC2)c(OC)c1OC | inactive: -2.1% |
| COc1ccc(C(=O)NCC2(N3CCCCC3)CCCCC2)cc1 | inactive: -0.59% |
| O=C(NCC1(N2CCCCC2)CCCCC1)c1cccs1 | inactive: 0.833% |
| O=C(NCC1(N2CCCCC2)CCCCC1)c1ccc(=O)[nH]c1 | inactive: -3.07% |
| CSc1ccccc1C(=O)NCC1(N2CCCCC2)CCCCC1 | inactive: 1.78% |
| Cc1ccc(OCC(C)C)c(CN(CCCl)CCCl)c1 | inactive: 0.495% |
| COc1cc(C(=O)NCC2(N(C)C)CCCCC2)ccc1OC(F)F | inactive: -1.78% |
| CCOC(=O)N1CCC(Nc2cccc(C)c2)CC1 | inactive: 4.57% |

| SMILES | inhibition |
| --- | --- |
| CCOc1ccc(C)cc1CN(CCCl)CCCl | inactive: -0.578% |
| CCOC(=O)N1CCC(Nc2ccc(F)cc2)CC1 | inactive: -2.72% |
| COc1ccc(NC2CCN(CCc3ccccc3)CC2)c(OC)c1 | inactive: -1.9% |
| O=C(NCC1(N2CCCCC2)CCCCC1)c1ccc(F)cc1 | inactive: 5.04% |
| CCN1CCC(Nc2cccc(F)c2)CC1 | inactive: 2.41% |
| CN(C)c1ccc(C(=O)NCC2(N3CCCCC3)CCCCC2)cc1 | inactive: 3.12% |
| COc1cc(OC)cc(C(=O)NCC2(N3CCCCC3)CCCCC2)c1 | inactive: 3.39% |
| Fc1ccccc1NC1CCN(Cc2ccccc2)CC1 | inactive: 0.915% |
| Cc1ccc(C(=O)NCC2(N3CCCCC3)CCCCC2)o1 | inactive: 2.7% |
| COc1cccc(C(=O)N(c2cc(C)cc(C)c2)C2CCN(C(=O)OC(C)(C)C)CC2)c1 | inactive: 6.54% |
| COc1cc(OC)cc(C(=O)NCC2(N3CCOCC3)CCCCC2)c1 | inactive: -0.188% |
| CCC(CO)(C(=O)OC1CN2CCC1CC2)c1ccccc1 (stereo not given) | inactive: 4.06% |
| CCCOc1ccc(C)cc1CN(CCCl)CCCl | inactive: -2.54% |
| CN1CCC(Nc2ccc(F)c(Cl)c2)CC1 | inactive: 6.86% |
| CCOc1ncccc1C(=O)NCC1(N2CCOCC2)CCCCC1 | inactive: -2.77% |
| O=C(O)C1(Nc2ccccc2)CCN(Cc2ccccc2)CC1 | inactive: 5.86% |
| CC(C)(C)OC(=O)N1CCC(Nc2ccccc2)CC1 | inactive: -0.77% |
| CCCOc1ccc(C(=O)NCC2(N(C)C)CCCCC2)cc1 | inactive: 1.74% |
| CCOC(=O)N1CCC(Nc2ccc(C)cc2)CC1 | inactive: -7.42% |
| N/C(=N\O)c1c(N)no[n+]1[O-] | inactive: 0.164% |
| O=C(OC1CN2CCC1CC2)C1c2ccccc2C=Cc2ccccc21 (stereo not given) | inactive: 6.9% |
| COc1ccc(C(=O)NCC2(N3CCOCC3)CCCCC2)cc1OC | inactive: 2.6% |
| CN(C)C1(CNC(=O)c2cccc(C#N)c2)CCCCC1 | inactive: -0.542% |
| CCCN1CCC(Nc2cc(OC)cc(OC)c2)CC1 | inactive: -4.59% |
| c1ccc(CN2CCC(Nc3ccccc3)CC2)cc1 | inactive: -3.14% |
| N#Cc1ccc(C(=O)NCC2(N3CCCCC3)CCCCC2)cc1 | inactive: 2.36% |
| CC(C)(C)OC(=O)N1CCC(N(C(=O)c2ccccc2)c2ccc(Cl)cc2)CC1 | inactive: -1.26% |
